Assay results as given in patent publication US10799529B2, “Composition for preventing or treating spinal cord injury comprising imidazole-poly(organophosphazene) hydrogel” (priority 2018, dated 2020).
Counter-ions that a name gives are not always drawn.

Chains of the proteins cited; added tags and fusions are not shown.
UniProt P70174, whole entry: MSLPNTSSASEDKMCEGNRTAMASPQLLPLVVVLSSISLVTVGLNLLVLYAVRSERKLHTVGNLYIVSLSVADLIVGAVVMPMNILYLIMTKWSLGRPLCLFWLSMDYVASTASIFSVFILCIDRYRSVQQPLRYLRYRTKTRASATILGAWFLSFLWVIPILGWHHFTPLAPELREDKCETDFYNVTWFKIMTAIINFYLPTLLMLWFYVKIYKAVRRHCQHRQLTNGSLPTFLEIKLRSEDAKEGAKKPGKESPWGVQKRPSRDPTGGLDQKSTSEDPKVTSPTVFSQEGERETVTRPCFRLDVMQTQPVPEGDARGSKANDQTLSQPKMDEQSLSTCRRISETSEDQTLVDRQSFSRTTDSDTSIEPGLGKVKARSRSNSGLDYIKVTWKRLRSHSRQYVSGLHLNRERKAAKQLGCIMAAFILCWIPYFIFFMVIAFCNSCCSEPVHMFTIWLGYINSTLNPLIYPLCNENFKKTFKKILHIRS

Biological target: histamine receptor 1 (H1) (Mus musculus, UniProt P70174)
Settings: 20 μM, 30 minutes before I-5 nanoparticles

Q: Which “red fluorescence in macrophages after H1R inhibitor pretreatment” value does the source give for `COc1ccc(CN(CCN(C)C)c2ccccn2)cc1` [mepyramine, mepyramine maleate] here?
A: lower
